Test results from patent publication US20100179118A1, “CYCLIC AMINOALKYLCARBOXAMIDE DERIVATIVE” (DAINIPPON SUMITOMO PHARMA CO., LTD., priority 2006, published 2010).
Only a part of the results on these compounds is given; other tests are left out.

Assays:
[1] = system: BN rat DNCB repetitive application dermatitis model; assay: Suppressive action on BN rat DNCB repetitive application dermatitis model; details: oral once a day, AUC of ear thickness increase vs solvent control, male BN rat
Procedure: Suppressive Action on BN Rat DNCB Repetitive Application Dermatitis Model
A 8-week-old male rat was sensitized by applying 30 μL of 1.5 wt % solution of dinitrochlorobenzene (DNCB) dissolved in acetone:olive oil=4:1 solution to the right ear on day 1 and 3 days later. Starting from one week thereafter, the same solution was consecutively applied to the right ear every other day in total of 6 times, whereby chronic dermatitis was induced in which the skin thickness increases with time. As for the level of dermatitis, the thickness was measured with a dial gauge thickness before application of the solution, and expressed by the difference from the measured thickness of the right ear immediately before induction on day 1 of the induction. The drug was suspended in 0.5 wt % tragacanth, and orally administered once a day immediately before induction on day 1 of the induction and after 24 hr value measurement the next day. The changes in the ear tumentia with time were monitored, and the area under the curve in a graph showing the values up to 48 hr after the final induction was calculated, from which the percent suppression relative to the area of the solvent control group was determined. As a comparison control compound, prednisolone, which is a steroid, was used.

[2] = system: TMA (trimellitic anhydride) repetitive application dermatitis model; assay: Suppressive action on TMA (trimellitic anhydride) repetitive application dermatitis model; assay type: in vivo; details: dose 20 mg/kg, oral twice (30 min before and 4 hr after induction); ear thickness vs solvent control; male BALB/c mice

With `O=C(CN1CCCCC1)N(c1ccccc1)C1CCN(C(=O)C2(c3ccc(Cl)cc3)CCCC2)CC1` the “suppression (%) at 48 hr after final induction” value ([1]; dose 2 mg/kg) was 25.5%, the “suppression (%) at 48 hr after final induction” value ([1]; dose 5 mg/kg) was 45.8% and the “right ear suppression (%) at 8 hr after final induction” value [2] was 48.7%.
